Consider one molecule from article PMC10404699, “SAMHD1 impairs type I interferon induction through the MAVS, IKKε, and IRF7 signaling axis during viral infection” (The Journal of Biological Chemistry, 2023).

The target of the assay is T1, purified c-myc/DDK-tagged IKKε (inhibitor of nuclear factor kappa-B kinase epsilon) (human, UniProt Q14164 1-716).
T1 construct: also called recombinant IKKε; source: bought: Origene (TP312481); purified from HEK293T cells
T1 sequence (looked up): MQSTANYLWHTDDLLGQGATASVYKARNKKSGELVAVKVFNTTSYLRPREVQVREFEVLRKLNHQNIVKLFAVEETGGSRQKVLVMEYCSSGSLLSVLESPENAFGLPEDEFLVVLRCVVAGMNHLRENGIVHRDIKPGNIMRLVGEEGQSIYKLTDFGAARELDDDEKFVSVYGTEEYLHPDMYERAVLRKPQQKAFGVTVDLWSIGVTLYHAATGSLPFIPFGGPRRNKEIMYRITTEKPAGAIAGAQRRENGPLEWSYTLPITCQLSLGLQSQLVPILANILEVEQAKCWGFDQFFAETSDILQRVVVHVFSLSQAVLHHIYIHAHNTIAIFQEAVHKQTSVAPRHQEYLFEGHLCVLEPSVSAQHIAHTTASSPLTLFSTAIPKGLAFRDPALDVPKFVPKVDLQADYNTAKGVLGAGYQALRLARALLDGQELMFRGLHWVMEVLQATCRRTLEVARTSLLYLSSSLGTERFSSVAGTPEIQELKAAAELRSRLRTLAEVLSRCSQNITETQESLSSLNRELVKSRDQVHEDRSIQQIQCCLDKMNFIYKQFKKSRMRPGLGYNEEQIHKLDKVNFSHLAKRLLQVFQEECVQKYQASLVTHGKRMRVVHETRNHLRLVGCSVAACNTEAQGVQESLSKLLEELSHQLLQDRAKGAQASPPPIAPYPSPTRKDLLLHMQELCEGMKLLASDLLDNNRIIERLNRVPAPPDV
Nature of the assay: pull-down; in vitro pull-down of purified recombinant proteins with an anti-SAMHD1 antibody, analyzed by immunoblot; performed as described in ref. 16. Conditions: both partners purified. A general note: A western blot detects proteins with antibodies after separation by electrophoresis.

B1: recombinant N-terminal His-tagged full-length SAMHD1 (natural protein, human, UniProt Q9Y3Z3 1-626, looked up)
chain: MQRADSEQPSKRPRCDDSPRTPSNTPSAEADWSPGLELHPDYKTWGPEQVCSFLRRGGFEEPVLLKNIRENEITGALLPCLDESRFENLGVSSLGERKKLLSYIQRLVQIHVDTMKVINDPIHGHIELHPLLVRIIDTPQFQRLRYIKQLGGGYYVFPGASHNRFEHSLGVGYLAGCLVHALGEKQPELQISERDVLCVQIAGLCHDLGHGPFSHMFDGRFIPLARPEVKWTHEQGSVMMFEHLINSNGIKPVMEQYGLIPEEDICFIKEQIVGPLESPVEDSLWPYKGRPENKSFLYEIVSNKRNGIDVDKWDYFARDCHHLGIQNNFDYKRFIKFARVCEVDNELRICARDKEVGNLYDMFHTRNSLHRRAYQHKVGNIIDTMITDAFLKADDYIEITGAGGKKYRISTAIDDMEAYTKLTDNIFLEILYSTDPKLKDAREILKQIEYRNLFKYVGETQPTGQIKIKREDYESLPKEVASAKPKVLLDVKLKAEDFIVDVINMDYGMQEKNPIDHVSFYCKTAPNRAIRITKNQVSQLLPEKFAEQLIRVYCKKVDRKSLYAARQYFVQWCADRNFTKPQDGDVIAPLITPQKKEWNDSTSVQNPTRLREASKSRVQLFKDDPM
notes: also called recombinant FL SAMHD1; recombinant SAMHD1
For B1, the binding result is on record as “binds”.
